In US20140315981A1, “STRATEGIES FOR PREVENTION AND/OR TREATMENT OF DISEASES BASED ON CD40 SILENCING” (FUNDACIO INSTITUT D'INVESTIGACIO BIOMEDICA DE BELLVITGE …, priority 2011, published 2014):

Assays:
Format in all cases: in vivo
NZB/W F1 female mice [1] = assay: Survival of NZB/W F1 mice with lupus nephritis under treatment; conditions: intraperitoneal treatment from six to nine months of age
Procedure: Animals NZB/W F1 female mice (Charles River, Spain) were used. The experiment was carried out in accordance with current legislation on animal experiments in the European Union and approved by our institution's Ethics Committee for Animal Research. Mice were housed in a constant temperature room with a 12-hour dark/12-hour light cycle, and were given free access to water and a standard laboratory diet.
(§1) Five-month old NZB/W F1 female mice were divided into the following groups: • CYP (n=8)—mice were treated with intraperitoneal CYP 50 μg/kg every 10 days; • CTLA4-Ig (n=9)—mice were treated with intraperitoneal 50 μg CTLA4-Ig three times a week. • siRNA 1/w (n=9): mice were treated intraperitoneally with 50 μg of murine specific anti CD40 siRNA once a week; • siRNA 2/w P (n=9): mice were treated intraperitoneally with 50 μg of murine specific anti CD40 siRNA twice a week; • Control (n=11)—non-treated animals.
Treatment was given from six to nine old months. Body weight was determined twice a month. Mice were placed in metabolic cages to collect 24-hour urine specimens before treatment, and again at six, seven and eight months. Blood was obtained from the tail vein at the same intervals. At the end of the follow-up, survivor animals were sacrificed and kidney processed for histological studies.
Data are expressed as mean+SE. Overall survival was analyzed by the Kaplan-Meier method. […]

NZB/W F1 female mice [2] = assay: Proteinuria and renal function, murine lupus nephritis; conditions: vs. control, FIG. 3
Procedure: as §1
Treatment was given from six to nine old months. Body weight was determined twice a month. […]
Urinary protein concentration was determined by a commercial kit based on the Ponceau method (BayerDiagnostics, Madrid, Spain). Serum creatinine levels (in milligrams per decilitre) were determined by Jaffés method on an autoanalyzer (Beckman Instruments, Palo Alto, Calif.) at the end of the follow-up. Anti-DNA antibodies levels of anti-DNA antibodies were measured before treatment, and subsequently each month and at sacrifice, using a commercially available ELISA kit (Alpha Diagnostic International, San Antonio, Tex., USA) according to manufacturer's instructions (serum diluted 1:100). […] Kits contain positive and negative controls, and anti-DNA antibodies are estimated in a semi-quantitative way according to the optical density (o.d. 450).

NZB/W F1 female mice [3] = assay: Spleen weight and splenocyte B cell populations, murine lupus nephritis; conditions: FIG. 9
Procedure: as §1

CTLA4-Ig: soluble cytotoxic T-lymphocyte antigen 4 (CTLA-4)-IgG1 construct (Abatacept), costimulatory blocker
Cumulative survival analyzed by the Kaplan-Meier method (NZB/W F1 female mice [1]): 100% | proteinuria (NZB/W F1 female mice [2]): intermediate | proportion of activated B cells in splenocytes (NZB/W F1 female mice [3]): reduced
